# Measurements reported in patent US7244767B2 (priority 1998, dated 2007).
# By UniProt entry, the sequences of proteins in these tests, tags left out.
# UniProt P47746, whole entry: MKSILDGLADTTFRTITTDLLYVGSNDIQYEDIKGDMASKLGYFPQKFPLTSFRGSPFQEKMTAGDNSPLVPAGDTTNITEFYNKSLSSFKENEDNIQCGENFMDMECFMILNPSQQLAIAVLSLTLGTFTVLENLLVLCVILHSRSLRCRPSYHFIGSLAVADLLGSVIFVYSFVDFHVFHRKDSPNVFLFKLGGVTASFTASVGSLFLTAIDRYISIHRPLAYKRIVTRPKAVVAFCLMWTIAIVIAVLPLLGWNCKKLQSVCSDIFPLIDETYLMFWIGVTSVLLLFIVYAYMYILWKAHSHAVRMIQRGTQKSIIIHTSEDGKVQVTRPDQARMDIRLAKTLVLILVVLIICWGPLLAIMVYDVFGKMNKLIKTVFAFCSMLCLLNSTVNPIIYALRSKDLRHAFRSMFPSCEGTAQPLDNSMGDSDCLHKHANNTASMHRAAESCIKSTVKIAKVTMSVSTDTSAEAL
# How the values were obtained:
# [1] = biological target: T1, cannabinoid receptor CB1 (Mus musculus, UniProt P47746); assay: Binding to cannabinoid receptor CB1, displacement of [3H]SR141716A on N18TG2 cell membranes; details: 300 pM [3H]SR141716A, 90 min at 30° C., read-out: Ki, CB1 receptor, N18TG2 + cells, [3H]SR141716A ligand
# T1 construct: endogenous in cells; host or cells: N18TG2 mouse neuroblastoma cells
# Description: Mouse neuroblastoma cells N18TG2 which selectively express the cannabinoid receptor CB1 and rat leukaemia basophil cells RBL-2H3+ which selectively express the cannabinoid receptor CB2 were used. […] The binding tests were carried out with membranes of the said cells resuspended in 50 mM pH 7.0 Tris buffer; 2.5 mM mgCl2; 0.8 mM EDTA; 0.05% bovine serum albumin (BSA); 0.01% ethanol and in the presence of 100 μM phenylmethylsulphonyl fluoride (PMSF; sigma) using 300 pM of [^3H]SR141716A and [^3H]WIN55,212-2, respectively, as ligand.
# The membranes were incubated for 90 min at 30° C., filtered on glass microfibre filters (GFC-Whatman) and the radioactivity was measured by liquid scintillation. The specific binding was calculated using either 10 μM SR141716A or 10 μM HU-210 (obtained from Prof. R. Mechoulam, Hebrew University Jerusalem). The Ki values were calculated using the Chang-Prusoff equation and expressed as concentration μM.
# [2] = biological target: T2, receptor CB1 (Mus musculus, UniProt P47746); assay: Effect on stimulation of cyclic AMP by forskolin in N18TG2 cells; format: cell-based; details: 1 μM forskolin, 10 min at 37° C.; read-out: IC50, c-AMP stimulated by forskolin, N18TG2 cells
# T2 construct: endogenous in cells; host or cells: N18TG2 mouse neuroblastoma cells
# Description: The tests were carried out with the aim of checking whether or not the binding of the N-AVAM molecules to the receptor CB1 had any functional significance. The c-AMP assays were carried out on confluent N18TG2 cells in 6-well petri dishes (Falcon); the cells were stimulated for 10 min at 37° C. with 1 μM forskolin (Fluka) in 400 μl of serum-free medium containing 20 mM Hepes, 0.1 mg/ml of BSA and 0.1 mM 1-methyl-3-isobutylxanthine (Sigma) and either ethanol or anandamide or N-AVAM molecules plus SR141716A. After incubation, the cells were extracted and the c-AMP levels were evaluated using a suitable kit from Amersham according to the manufacturer's procedure. The data are expressed as IC50, in μM.
compound,measurement,setting,value
"CCCCC/C=C\C/C=C\C/C=C\C/C=C\CCCC(=O)NCCO [Anandamide, reference compound]",Ki,[1],1910 ± 310 nM
same,IC50,[2],3200 nM
